# Reference: PubChem BioAssay AID651647 (Sanford-Burnham Center for Chemical Genomics, 2012)
# The list shows a part of the results, in another mix than the full data. Active and inactive are the calls of the source.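 The calls were made as follows: active = GFP/RFP ratio change of at least 30% with cell ATP level not reduced by more than half and red fluorescence within 50% of control; inactive = the rest, inconclusive results apart.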
# Biological target: Matrix metalloproteinase-14 (Homo sapiens) (UniProt P50281)
# Test: blockers of MT1-MMP proenzyme processing, primary screen, HT1080 RFP-PRO-GFP cells, GFP/RFP fluorescence (AID 651647)
# Details: overnight, at 20 µM, stronger effect = higher value, percent of plate control window, DMSO zero
# Method in brief: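 Assay system: RFP-PRO-GFP reporter HT1080 cells; read-out basis: GFP/RFP fluorescence ratio; benchmarks: DMSO wells and RFP-L50D-GFP cells; doses: 20 µM single dose, 1% DMSO; schedule: overnight cell settling, then overnight compound exposure, 37 °C, 5% CO2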
row,SMILES,GFP/RFP ratio change
1,O=C(Nc1cc([As](=O)(O)O)ccc1O)c1ccccc1,inactive: -0.0816%
2,O=[N+]([O-])c1ncn(CCn2ncnc2[N+](=O)[O-])n1,inactive: -1.26%
3,CC(C)(C)C(=O)NC(Sc1ccncn1)C(Cl)(Cl)Cl (stereo not given),inactive: -3.2%
4,O=C(O)CNc1ccc([As](=O)(O)O)cc1,inactive: -0.561%
5,COC(=O)C1(C)COP(=O)(Nc2ccccc2)OC1 (stereo not given),inactive: -2.8%
6,O=[N+]([O-])c1cccc(NC2=NCC(CBr)S2)c1 (stereo not given),inactive: 1.78%
7,COc1ccc(C2=NCC(CBr)S2)cc1 (stereo not given),inactive: -5.91%
8,Cc1ccc(NP(=O)(Oc2ccccc2)Oc2ccccc2)nc1,inactive: -0.494%
9,O=[N+]([O-])c1cc([N+](=O)[O-])c(CCNc2ccccc2)c([N+](=O)[O-])c1,inactive: 8.21%
10,CCc1nc2c(n1)c1c(non1O)c1c2no[n+]1[O-],inactive: -24.8%
11,CC(=O)N1C2C3N(C(C)=O)C1C1N(C(C)=O)C(C(N1C(C)=O)N3C(C)=O)N2C(C)=O,inactive: 5.18%
12,O=[N+]([O-])c1cccc2n[nH]nc12,inactive: 3.03%
13,CCN(/C(=N/P(=O)(N1CCOCC1)N1CCOCC1)N1CCOCC1)c1ccc(OC)cc1,inactive: -3.71%
14,Nc1ccc([As](=O)(O)c2ccc(N)cc2)cc1,inactive: -2.53%
15,C[N+]1=C2C=CC=CC=C2SC12C([N+](=O)[O-])=CC([N+](=O)[O-])=C[C-]2[N+](=O)[O-] (stereo not given),inactive: 15%
16,CC1CCN(C(=O)Oc2c(Cl)cc(Cl)c3cccnc23)CC1,inactive: 1.82%
17,c1cc(-c2nn[nH]n2)ccc1-c1nn[nH]n1,inactive: 3.64%
18,CC(C)c1nc(Nc2ccccc2)n(P(=O)(N(C)C)N(C)C)n1,inactive: -0.594%
19,CC(C)=N/N=C(\N)N[N+](=O)[O-],inactive: 1.16%
20,CN(C)C(=O)OCCc1n(C)cc[n+]1C,inactive: -5.69%
21,COP1(=S)c2c(C)nn(CCC#N)c2N=C(c2ccc(F)cc2)N1C (stereo not given),inactive: -2.63%
22,COC(=O)C1(C)COP(=O)(N2CCCC2)OC1 (stereo not given),inactive: -0.11%

row,SMILES,GFP/RFP ratio change
1,O=C(O)C(=O)c1ccc(N(CCCl)CCCl)cc1,inactive: 4.38%
2,O=C(COc1ccccc1)OC1CN2CCC1CC2 (stereo not given),inactive: -3.59%
3,O=C(Nc1ccncc1[N+](=O)[O-])c1ccc([N+](=O)[O-])cc1[N+](=O)[O-],inactive: -14.5%
4,O=C(OC1CN2CCC1CC2)c1cccc([N+](=O)[O-])c1 (stereo not given),inactive: 0.425%
5,CSc1ccc(Nc2c([N+](=O)[O-])cc([N+](=O)[O-])cc2[N+](=O)[O-])cc1,inactive: 15.3%
6,CCOC(=O)c1ccc(NC(=O)C(C)(CCl)SC)cc1 (stereo not given),inactive: 1.5%
7,CCC(C)N(CC(C)C)C(=S)SC(NC(C)=O)C(Cl)(Cl)Cl (stereo not given),inactive: 2.8%
8,O=C(O)C(O)c1ccc(N(CCCl)CCCl)cc1 (stereo not given),inactive: -3.6%
9,CCOC(=O)Nc1ccc([As](=O)(O)O)c(O)c1,inactive: 5.45%
10,CC1CCNP(=O)(N(CCCl)CCCl)O1 (stereo not given),inactive: 0.923%
11,COP(=O)(OC)N1CC1c1ccccc1 (stereo not given),inactive: -1.43%
12,CCCCOc1ccc(C(=O)NCC2(N3CCCCC3)CCCCC2)cc1OC,inactive: -0.23%
13,Cc1cc(SC(NC(=O)c2ccccc2)C(Cl)(Cl)Cl)nc(C(C)C)n1 (stereo not given),inactive: -5.77%
14,CCOC(=O)Nc1cccc([As](=O)(O)O)c1,inactive: 5.41%
15,Cc1cc(SC(NC=O)C(Cl)(Cl)Cl)ncn1 (stereo not given),inactive: 4.72%
16,O=P(Nc1ccccn1)(c1cccc2ccccc12)c1cccc2ccccc12,inactive: -2.59%
17,O=[N+]([O-])c1ccc(Nc2ccc(Oc3ccc([N+](=O)[O-])cc3[N+](=O)[O-])cc2)c([N+](=O)[O-])c1,inactive: 5.17%
18,C[As](=O)(O)c1cccc(C(=O)O)c1,inactive: 1.56%
19,O=[As](O)(c1ccc(O)cc1)c1ccccc1O,inactive: 2.43%
20,O=[N+]([O-])c1ccc(-c2cc([N+](=O)[O-])c(O)c([N+](=O)[O-])c2)cc1,inactive: -0.704%
21,COc1cc(C(=O)NCC2(N3CCOCC3)CCCCC2)ccc1OCC(C)C,inactive: -2.48%
22,Cc1ccc(OP(=O)(Nc2ccc([N+](=O)[O-])cn2)Oc2ccc(C)cc2)cc1,inactive: 0.89%

row,SMILES,GFP/RFP ratio change
1,[N-]=[N+]=NC1CCCCC1NC(=O)c1cc([N+](=O)[O-])cc([N+](=O)[O-])c1 (stereo not given),inactive: 2.67%
2,Cc1ccc2nc3c(c(C)c2c1)CC(C(Cl)Cl)S3 (stereo not given),inactive: 6.73%
3,ClCCSc1nnc(-c2cccnc2)o1,inactive: 3.43%
4,COC(=O)C1(C)COP(=O)(N2CCCCCC2)OC1 (stereo not given),inactive: -4.55%
5,CC(C)NC(=O)NP(=O)(Oc1ccccc1)Oc1ccccc1,inactive: 0.19%
6,O=C(OC1CN2CCC1CC2)c1cccc2[nH]cnc12 (stereo not given),inactive: -3.16%
7,CCN(CC)C(=S)SC(NC=O)C(Cl)(Cl)Cl (stereo not given),inactive: 1.74%
8,O=[N+]([O-])c1cc([N+](=O)[O-])c(-c2ccn[nH]2)s1,inactive: -1.65%
9,Cc1c2c(nc3ccccc13)SC(C(Cl)Cl)C2 (stereo not given),inactive: -2.19%
10,O=C(OC1CN2CCC1CC2)C12CC3CC(CC(C3)C1)C2 (stereo not given),inactive: 4.07%
11,Cc1cc(=O)[nH]c(N[N+](=O)[O-])n1,inactive: 1.18%
12,O=P1(N(CCCl)CCCl)Nc2ccccc2N1,inactive: 1.28%
13,O=P1(N(CCCl)CCCl)OCCCN1CCCl (stereo not given),inactive: 0.329%
14,COc1ccc2nc(NP(=O)(c3ccccc3)c3ccccc3)sc2c1,inactive: 6.31%
15,COc1cc(I)ccc1[As](=O)(O)O,inactive: 6.95%
16,O=[N+]([O-])c1cc(Oc2ccc([N+](=O)[O-])cc2C(F)(F)F)cc([N+](=O)[O-])c1,inactive: -0.514%
17,COc1ccc(N/C(=N/P(=O)(N2CCOCC2)N2CCOCC2)N2CCOCC2)cc1,inactive: -0.0325%
18,O=C(OC1CN2CCC1CC2)c1ccc(Cl)cc1 (stereo not given),inactive: 0.413%
19,O=[As](O)(O)c1cccnc1,inactive: 1.85%
20,COc1cc(C(=O)NCC2(N3CCOCC3)CCCCC2)cc(Cl)c1OC(C)C,inactive: -11.3%
21,CS(=O)(=O)c1ccc(Cl)c(NC(=O)COC(=O)C(O)(c2ccccc2)c2ccccc2)c1,inactive: -0.373%
22,Cc1cccc(OCC(=O)OC2CN3CCC2CC3)c1 (stereo not given),inactive: 0.747%

row,SMILES,GFP/RFP ratio change
1,O=[As](O)(c1cccc(O)c1)c1cccc(O)c1,inactive: -0.0148%
2,Nc1cccc2c([As](=O)(O)O)cccc12,inactive: -33.2%
3,Cc1ccc(NCCc2c([N+](=O)[O-])cc([N+](=O)[O-])cc2[N+](=O)[O-])cc1,active: 34.9%
4,CCCOP(=S)(Nc1nc(N)cc(=O)[nH]1)OCCC,inactive: 1.95%
5,COc1cc(C2NCCC3(OCCO3)C2(C)C)cc(OC)c1OC (stereo not given),inactive: -0.342%
6,CCOP(=O)(Nc1cccc2ccccc12)OCC,inactive: 0.547%
7,CCOP1(=S)c2c(C)nn(CCC#N)c2N=C(c2ccccc2F)N1C (stereo not given),inactive: -1.76%
8,O=P(Nc1nccs1)(Oc1ccccc1)Oc1ccccc1,inactive: 3.72%
9,O=P(Nc1nccs1)(c1ccccc1)c1nc2ccccc2s1 (stereo not given),inactive: -0.0922%
10,CS(=O)(=O)c1cc([N+](=O)[O-])c2no[n+]([O-])c2c1,inactive: -6.51%
11,O=C(O)COc1ccc([As](=O)(O)O)cc1[N+](=O)[O-],inactive: 10.6%
12,Nc1ccccc1[As](=O)(O)c1ccccc1,inactive: 0.822%
13,NC(=O)Nc1ccc([As](=O)(O)O)cc1,inactive: -1.25%
14,N#CCCN(C(=O)COC(=O)C(O)(c1ccccc1)c1ccccc1)c1ccc(F)cc1,inactive: 1.33%
15,CN(C(=O)Cc1ccccc1)[C@@H]1CC[C@]2(CCCO2)C[C@H]1N1CCCC1,inactive: -3.74%
16,CCOP1(=S)c2c(C)nn(CCC#N)c2N=C(c2ccc(F)cc2)N1C (stereo not given),inactive: 2.84%
17,O=[N+]([O-])c1ccc2c(c1)nnn2O,inactive: -0.101%
18,CN(C)C(=O)c1cc([N+](=O)[O-])cc2c1-c1c(cc([N+](=O)[O-])cc1[N+](=O)[O-])C2=O,inactive: 7.65%
19,CN(C(=O)Cc1ccc(Cl)c(Cl)c1)[C@H]1CC[C@@]2(CCCO2)C[C@@H]1N1CCCC1,inactive: 4.38%
20,Cc1nn(-c2ccccc2)c2c1P(=O)(N1CCOCC1)N(C)C(c1ccccc1)=N2 (stereo not given),inactive: 2.78%
21,Cc1ccc(C(=O)OC2CN3CCC2CC3)cc1 (stereo not given),inactive: -0.418%
22,CC1CCC(C(C)C)C(OP(=O)(Nc2ccccn2)c2ccccc2)C1 (stereo not given),inactive: -12.5%

row,SMILES,GFP/RFP ratio change
1,CN(C)C1(CNC(=O)c2ccc(S(C)(=O)=O)cc2)CCCCC1,inactive: 1.45%
2,O=C(/C=C/c1ccccc1)OC1CN2CCC1CC2 (stereo not given),inactive: -0.0734%
3,CCCC1OP(=O)(Nc2ccccc2)OCC1CC (stereo not given),inactive: -4.8%
4,Cc1ccc(S(=O)(=O)N(CCCN)CCCc2c(C)nc(N)[nH]c2=O)cc1,inactive: 7.93%
5,O=P1(Nc2ncccn2)COc2ccccc2OC1,inactive: 2.73%
6,Nc1cccc([As](=O)(O)c2ccccc2)c1,inactive: 2.09%
7,O=[As](O)(c1cccs1)c1cccs1,inactive: -1.32%
8,Cc1ccc(OCC(=O)OC2CN3CCC2CC3)cc1 (stereo not given),inactive: 3.02%
9,NS(=O)(=O)c1cccc(NC(=O)COC(=O)C(O)(c2ccccc2)c2ccccc2)c1,inactive: -2.16%
10,O=P1(Nc2ccc(Br)cn2)COc2ccccc2OC1,inactive: 0.719%
11,CCC1=CC2Cc3nc4ccc(Cl)cc4c(N)c3C(C1)C2 (stereo not given),inactive: 1.95%
12,O=P1(Nc2ccccn2)COc2ccccc2OC1,inactive: -5.51%
13,CCOP(=O)(NC(=NC(C)c1ccccc1)NC(C)c1ccccc1)OCC (stereo not given),inactive: 0.28%
14,CCOP(=O)(Nc1ccc(C)cn1)OCC,inactive: 2.53%
15,CN(CCCl)Cc1cc(Cl)c(NC2=NCCN2)c(Cl)c1,inactive: -2.62%
16,Clc1n[nH]nc1-c1nn[nH][15n]1,inactive: 2.74%
17,O=P1(N(CCCl)CCCl)NCCC(C(F)(F)F)O1 (stereo not given),inactive: 1.65%
18,CC(C)(C)C(=O)NC(Sc1ncccn1)C(Cl)(Cl)Cl (stereo not given),inactive: 4.85%
19,COc1ccccc1CNC(=O)COC(=O)C(O)(c1ccccc1)c1ccccc1,inactive: -2.84%
20,CN(C(=O)Cc1ccc(Cl)c(Cl)c1)[C@@H]1CCCC[C@H]1N1CCCC1,inactive: -0.763%
21,CC(C)/C=N\N=C(\N)N[N+](=O)[O-],inactive: -3.47%
22,CC1(CBr)Cn2c(nc3ccccc3c2=O)S1 (stereo not given),inactive: -3.24%
